From ChEMBL document CHEMBL5523770 (J Med Chem, 2024) come the findings set out here.

By UniProt entry, the sequences of proteins in these tests, tags left out. Where a name states a change or a piece, a line headed by the entry shows the natural chain unless it says otherwise.
UniProt Q92570: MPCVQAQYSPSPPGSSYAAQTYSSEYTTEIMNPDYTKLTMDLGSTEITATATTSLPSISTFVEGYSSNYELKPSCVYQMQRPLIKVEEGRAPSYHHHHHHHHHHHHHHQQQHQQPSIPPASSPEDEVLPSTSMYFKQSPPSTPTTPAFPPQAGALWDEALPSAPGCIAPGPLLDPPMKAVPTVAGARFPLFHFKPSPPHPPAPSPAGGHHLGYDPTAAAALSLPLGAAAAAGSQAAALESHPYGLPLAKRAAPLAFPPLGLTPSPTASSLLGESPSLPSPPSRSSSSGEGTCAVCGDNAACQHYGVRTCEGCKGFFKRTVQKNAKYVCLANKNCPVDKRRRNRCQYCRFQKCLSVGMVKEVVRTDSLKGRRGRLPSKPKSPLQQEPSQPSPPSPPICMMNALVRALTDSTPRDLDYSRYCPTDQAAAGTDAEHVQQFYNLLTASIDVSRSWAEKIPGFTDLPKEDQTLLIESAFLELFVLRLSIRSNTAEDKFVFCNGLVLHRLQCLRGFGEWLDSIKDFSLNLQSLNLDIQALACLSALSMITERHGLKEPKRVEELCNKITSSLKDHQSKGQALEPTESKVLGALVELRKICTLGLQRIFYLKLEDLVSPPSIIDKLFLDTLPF

This test has as its target Nuclear receptor subfamily 4 group A member 3 (Homo sapiens, UniProt Q92570). In words: Inverse agonist activity at human NOR-1 (393 to 626 residues) transfected in HEK293T cells incubated for 16 hrs by firefly/renilla based Dual-Glo luciferase assay. It is filed as cell-based.

As usually defined, the IC50 is the concentration needed to halve the response being measured. Higher therefore signals a need for much substance. Compound `O=C(O)Cc1nc(-c2ccccc2)c(-c2ccccc2)o1` displayed a 50% inhibitory concentration (IC50) of 10 µM. This lies in the double-digit micromolar range.
